Amino acid sequences for entries named in this document (tags omitted).
UniProt P50750, whole entry: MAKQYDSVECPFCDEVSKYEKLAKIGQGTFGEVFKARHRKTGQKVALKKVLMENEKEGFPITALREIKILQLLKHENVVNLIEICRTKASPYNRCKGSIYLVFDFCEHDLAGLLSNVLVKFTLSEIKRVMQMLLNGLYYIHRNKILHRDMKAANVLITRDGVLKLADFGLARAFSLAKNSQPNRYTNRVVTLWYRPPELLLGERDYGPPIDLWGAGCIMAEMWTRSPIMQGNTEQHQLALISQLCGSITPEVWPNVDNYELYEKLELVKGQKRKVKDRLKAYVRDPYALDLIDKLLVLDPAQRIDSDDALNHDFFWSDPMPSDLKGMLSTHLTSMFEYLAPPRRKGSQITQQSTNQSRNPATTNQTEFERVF
UniProt P06493, whole entry: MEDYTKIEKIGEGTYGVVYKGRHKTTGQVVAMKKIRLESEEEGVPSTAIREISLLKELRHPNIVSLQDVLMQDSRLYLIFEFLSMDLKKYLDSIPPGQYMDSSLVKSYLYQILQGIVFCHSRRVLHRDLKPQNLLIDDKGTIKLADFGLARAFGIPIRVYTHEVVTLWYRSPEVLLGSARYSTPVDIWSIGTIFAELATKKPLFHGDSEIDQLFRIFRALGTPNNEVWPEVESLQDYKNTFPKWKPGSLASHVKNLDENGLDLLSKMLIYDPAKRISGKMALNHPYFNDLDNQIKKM
UniProt P14635, whole entry partner: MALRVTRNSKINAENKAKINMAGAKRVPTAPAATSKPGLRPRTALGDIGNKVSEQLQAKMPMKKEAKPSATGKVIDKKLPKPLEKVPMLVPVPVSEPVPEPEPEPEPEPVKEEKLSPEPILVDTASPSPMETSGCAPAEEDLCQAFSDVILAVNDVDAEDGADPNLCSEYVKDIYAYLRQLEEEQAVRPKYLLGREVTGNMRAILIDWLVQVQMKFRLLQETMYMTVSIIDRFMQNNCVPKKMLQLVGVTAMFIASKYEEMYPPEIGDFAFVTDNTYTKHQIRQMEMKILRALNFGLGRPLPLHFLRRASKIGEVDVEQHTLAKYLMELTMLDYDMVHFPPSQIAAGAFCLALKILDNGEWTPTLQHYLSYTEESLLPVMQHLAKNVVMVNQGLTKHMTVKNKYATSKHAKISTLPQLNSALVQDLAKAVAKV
UniProt O60563, whole entry partner: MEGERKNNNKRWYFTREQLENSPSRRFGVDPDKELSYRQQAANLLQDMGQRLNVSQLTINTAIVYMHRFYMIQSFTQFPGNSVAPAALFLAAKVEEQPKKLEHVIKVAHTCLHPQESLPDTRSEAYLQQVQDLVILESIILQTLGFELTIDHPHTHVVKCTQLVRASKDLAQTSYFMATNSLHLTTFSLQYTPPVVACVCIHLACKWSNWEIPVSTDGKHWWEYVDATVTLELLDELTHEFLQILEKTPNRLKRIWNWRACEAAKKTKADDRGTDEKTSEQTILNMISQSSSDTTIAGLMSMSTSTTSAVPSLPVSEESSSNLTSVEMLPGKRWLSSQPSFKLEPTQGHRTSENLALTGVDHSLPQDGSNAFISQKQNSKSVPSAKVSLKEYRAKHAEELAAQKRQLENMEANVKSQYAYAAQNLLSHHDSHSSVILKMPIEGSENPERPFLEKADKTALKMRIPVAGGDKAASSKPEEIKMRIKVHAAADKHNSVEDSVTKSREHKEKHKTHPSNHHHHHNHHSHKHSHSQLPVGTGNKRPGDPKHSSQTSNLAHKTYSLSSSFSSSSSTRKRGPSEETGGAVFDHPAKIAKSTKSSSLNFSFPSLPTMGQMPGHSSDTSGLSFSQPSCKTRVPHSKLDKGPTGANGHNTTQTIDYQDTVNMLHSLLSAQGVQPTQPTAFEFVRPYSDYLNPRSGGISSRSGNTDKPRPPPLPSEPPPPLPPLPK

According to US20240109898A1, “SUBSTITUTED PYRAZOLO[1,5-A]PYRIMIDINE-7-AMINE DERIVATIVES, COMPOSITIONS AND PHARMACEUTICAL USES THEREOF” (SHANGHAI HAIYAN PHARMACEUTICAL TECHNOLOGY CO., LTD., priority 2021, published 2024):

How the values were obtained:
CDK9/CycT = CDK9/CycT (Homo sapiens (Human), UniProt P50750); experiment: LANCE Ultra kinase activity inhibition assay, CDK9/CycT; settings: read-out: CDK9 (IC50/μM), ATP 10 μM, highest compound concentration 1 μM
CDK1/CycB = CDK1/CycB (Homo sapiens (Human), UniProt P06493); experiment: LANCE Ultra kinase activity inhibition assay, CDK1/CycB; type: biochemical; settings: read-out: CDK1 (IC50/μM), ATP 4 μM, highest compound concentration 10 μM
CDK2/CycA = CDK2/CycA (Homo sapiens (Human), UniProt P24941); experiment: LANCE Ultra kinase activity inhibition assay, CDK2/CycA; type: biochemical; settings: read-out: CDK2 (IC50/μM), ATP 10 μM, highest compound concentration 10 μM

Structure (SMILES) | IC50 (CDK9/CycT) [µM] | IC50 (CDK1/CycB) [µM] | IC50 (CDK2/CycA) [µM]
CC(=N)N[C@H]1CC[C@H](Nc2cc(C(C3CC3)C3CC3)nc3c(C)cnn23)C1 | 0.034 | > 10 | > 10
CC(=N)N[C@H]1CC[C@H](Nc2cc([C@@H](C)C3CC3)nc3c(Cl)cnn23)C1 | 0.011 | 2.09 | 1.23
